Measured values as given in patent publication US7176283B1, “Protease-activated receptor 3 and uses thereof” (The Regents of the University of California, priority 1996, dated 2007).

Target: human protease-activated receptor 3 (human) (UniProt O00254)
Assay: cell-based or functional assay

- EC50, phosphoinositide hydrolysis in Cos 7 cells: 0.2 nM
Substance: α-thrombin (from UniProt P00734 328-363; P00734 364-622) (enzyme)
